Tests used:
RAW264.7 cells [1] = test: Osteoclast differentiation (TRAP assay); conditions: DM supplemented with cyclopamine
RAW264.7 cells [2] = test: Osteoclast resorption activity (OAAS plates); conditions: conditioned medium from MDA-MB-435 cells treated with cyclopamine
OPN promoter [3] = test: OPN promoter reporter activity in hFOB cells; format: cell-based, human
OPN promoter [4] = test: OPN promoter reporter activity in MC3T3-E1 pre-osteoblastic cells; format: cell-based, murine
OPN promoter [5] = test: OPN promoter luciferase reporter assay in metastatic melanoma cell lines; format: cell-based, human

## CC1=C2C[C@H]3[C@@H](CC=C4C[C@@H](O)CC[C@@]43C)[C@@H]2CC[C@]12O[C@@H]1C[C@H](C)CN[C@H]1[C@H]2C [cyclopamine]
RAW264.7 cells [1]
  viability of preosteoclasts: without impacting their viability
RAW264.7 cells [2]
  ability of tumor cells to activate resorptive function: significantly reduced
OPN promoter [3]
  OPN promoter activity: inhibits OPN
OPN promoter [4]
  OPN promoter activity: inhibits Hedgehog-activated OPN
OPN promoter [5]; MCC012A cell line, cyclopamine 10 μM
  OPN promoter activity: noticeable, but not significant (p=0.06) decrease
OPN promoter [5]; MCC012A cell line, cyclopamine 20 μM
  OPN promoter activity: significant decrease (p=0.0006)
OPN promoter [5]; MCC012F cells, cyclopamine 10 μM and 20 μM
  OPN promoter activity: significant (p=0.042 and 0.002, respectively) decrease

From US9540647B2, “Methods and compositions for the treatment of cancer” (University of South Alabama, priority 2010, dated 2017)
